The target in one experiment is Carbonic anhydrase 2 (Homo sapiens, UniProt P00918).
The target in the next experiment is Carbonic anhydrase 9 (Homo sapiens, UniProt Q16790).

Ki data for three molecules are collected here from ChEMBL document CHEMBL3817799, “N-Nitrosulfonamides: A new chemotype for carbonic anhydrase inhibition” (Bioorg Med Chem, 2016).

The term Ki denotes a dissociation constant, usually derived from enzyme kinetics or from competition with a known ligand. A high value points to a looser hold on the target.

As to `Nc1ccc(S(=O)(=O)N[N+](=O)[O-])cc1`, the Ki was more than 50 µM at Carbonic anhydrase 2 and 8.19 µM on Carbonic anhydrase 9.
`Nc1cc(S(=O)(=O)N[N+](=O)[O-])cc([N+](=O)[O-])c1O`: the Ki at Carbonic anhydrase 2 is more than 50 µM; at Carbonic anhydrase 9 it was 8.72 µM.
`Nc1ccccc1S(=O)(=O)N[N+](=O)[O-]`: the Ki at Carbonic anhydrase 2 was more than 50 µM.
